The target of this assay is p70S6K1 (Homo sapiens, UniProt P23443). Description: Z′-LYTE biochemical kinase inhibition assay (SelectScreen, Thermo Fisher). As to conditions: 10-point titration, 3-fold dilutions from 25 μM. How it is done: The high-throughput and dose-response curve assays against kinases were performed using the services of SelectScreen™ Biochemical Kinase Profiling Service by Thermo Fisher Scientific (Table 2; Supplementary Figure S13). The Z ´-LYTE biochemical assay employs a fluorescence-based, coupled-enzyme format based on the differential sensitivity of phosphorylated and non-phosphorylated peptides to proteolytic cleavage. The peptide substrate is labeled with two fluorophores—one at each end—that make up a fluorescence resonance energy transfer (FRET) pair. In the primary reaction, the kinase transfers the gamma-phosphate of ATP to a single tyrosine, serine, or threonine residue in a synthetic FRET-peptide. […] A ratiometric method, which calculates the emission ratio of donor emission to acceptor emission after excitation of the donor fluorophore at 400 nm, is used to quantitate reaction progress, as shown in the equation below.” Emission ratio=Coumarin emission 445 nm/Flourescein emission 520 nm. […]
All ATP Solutions are diluted to a 4X working concentration in kinase buffer (50 mM HEPES pH 7.5, 0.01% BRIJ-35, 10 mM MgCl2, 1 mM EGTA). ATP Km apparent was previously determined using a Z′-LYTE assay.
Bar-coded Corning, low volume NBS, black 384-well plate (Corning Cat. #4514). • 1. […] Read on the fluorescence plate reader and analyze the data […]

Protein sequences, listed by entry. Tags and fused reporters are not part of them. Residues count along the entry.
UniProt P23443, 24-525: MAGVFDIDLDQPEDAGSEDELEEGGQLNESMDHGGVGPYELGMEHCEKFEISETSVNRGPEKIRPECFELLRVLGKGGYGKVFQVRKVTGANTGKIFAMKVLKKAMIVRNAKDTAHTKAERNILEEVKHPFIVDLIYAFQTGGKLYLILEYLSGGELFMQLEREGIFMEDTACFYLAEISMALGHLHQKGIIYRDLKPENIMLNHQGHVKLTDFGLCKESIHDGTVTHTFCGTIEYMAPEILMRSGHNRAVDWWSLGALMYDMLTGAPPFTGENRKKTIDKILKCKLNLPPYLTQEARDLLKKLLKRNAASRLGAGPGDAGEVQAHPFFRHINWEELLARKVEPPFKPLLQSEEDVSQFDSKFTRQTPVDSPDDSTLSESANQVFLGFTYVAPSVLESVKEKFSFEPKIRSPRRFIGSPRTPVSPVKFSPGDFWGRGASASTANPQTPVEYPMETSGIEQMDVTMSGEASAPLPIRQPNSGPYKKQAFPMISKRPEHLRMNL

This note sets out measurements from paper PMC11694070, “Development of 6-amido-4-aminoisoindolyn-1,3-diones as p70S6K1 inhibitors and potential breast cancer therapeutics” (Frontiers in Molecular Biosciences, 2024).

In turn, `CCc1cncnc1N1CCN(Cc2nc3cc(C(F)(F)F)ccc3[nH]2)CC1` [PF-4708671] showed an IC50 of 180 nM.

Broadly, the IC50 is the point on the concentration scale where inhibition reaches its midpoint. The low end stands for greater potency in that assay, the high end for weaker potency in that assay.
